How the values were obtained:
[1] = target: T1, PCV2 capsid protein (dcapsid) (Porcine circovirus 2, UniProt O56129); test: Microscale thermophoresis assay (MST), wild-type dcapsid; assay type: binding, porcine circovirus type 2 (PCV2); details: Cy5 labelled, read-out: Kd between dcapsid and compound
T1 construct: hexahistidine (N); made in house; host or cells: Escherichia coli BL21 (DE3)

Amino acid sequences for entries named in this document (tags omitted). Residues count along the entry.
UniProt O56129, 42-233: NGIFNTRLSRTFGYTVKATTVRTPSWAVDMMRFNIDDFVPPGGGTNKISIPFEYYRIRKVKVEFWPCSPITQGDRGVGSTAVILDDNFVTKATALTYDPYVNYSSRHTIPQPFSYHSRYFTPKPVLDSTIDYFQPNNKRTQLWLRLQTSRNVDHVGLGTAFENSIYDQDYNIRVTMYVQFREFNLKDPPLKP

[2] = target: T2, PCV2 dcapsid bound to Heparin-Sepharose (Porcine circovirus 2, UniProt O56129); test: Heparin column chromatography (competitive elution of dcapsid); assay type: binding, porcine circovirus type 2 (PCV2)
T2 construct: hexahistidine (N); made in house; host or cells: Escherichia coli BL21 (DE3)

## heparin
[1]
  Kd: 121 ± 4.73 µM
[2]; competitor 0.05 mg/mL
  dcapsid protein fraction eluted from heparin column: 36.00 ± 6.25%
[2]; competitor 0.5 mg/mL
  dcapsid protein fraction eluted from heparin column: 89.33 ± 4.16%

From PMC7077276 (Viruses, 2020)
